{
  "source": "patent US9393221B2",
  "about": "“Methods and compounds for reducing intracellular lipid storage” (THE GENERAL HOSPITAL CORPORATION, priority 2011, dated 2016)",
  "system": "ATGL-KO iPSCs",
  "test": "High throughput iPSC chemical screening, Oil Red O (ORO) lipid accumulation; further: test concentration or dose not given here",
  "conditions": "normalized ORO level vs DMSO-treated cells; compound present during 7 days differentiation, 96-well; negative = decrease in lipid accumulation",
  "data": [
    {"smiles": "Nc1ncnc2c1ncn2[C@@H]1O[C@H](COP(=O)(O)O)[C@@H](O)[C@H]1O.O", "note": "[Adenosine 5′-monophosphate monohydrate]", "values": [
      {"measurement": "Z-score", "result": "−1.2202"}
    ]}
  ]
}
